# Test results reported in US10611765B2, “Pyrrolopyrimidine derivatives as Mps1/TTK kinase inhibitors” (Ohio State Innovation Foundation, priority 2014, dated 2020).
# Sequences of proteins named here, by UniProt entry; tags and fusion partners are left off.
# UniProt Q05397, whole entry: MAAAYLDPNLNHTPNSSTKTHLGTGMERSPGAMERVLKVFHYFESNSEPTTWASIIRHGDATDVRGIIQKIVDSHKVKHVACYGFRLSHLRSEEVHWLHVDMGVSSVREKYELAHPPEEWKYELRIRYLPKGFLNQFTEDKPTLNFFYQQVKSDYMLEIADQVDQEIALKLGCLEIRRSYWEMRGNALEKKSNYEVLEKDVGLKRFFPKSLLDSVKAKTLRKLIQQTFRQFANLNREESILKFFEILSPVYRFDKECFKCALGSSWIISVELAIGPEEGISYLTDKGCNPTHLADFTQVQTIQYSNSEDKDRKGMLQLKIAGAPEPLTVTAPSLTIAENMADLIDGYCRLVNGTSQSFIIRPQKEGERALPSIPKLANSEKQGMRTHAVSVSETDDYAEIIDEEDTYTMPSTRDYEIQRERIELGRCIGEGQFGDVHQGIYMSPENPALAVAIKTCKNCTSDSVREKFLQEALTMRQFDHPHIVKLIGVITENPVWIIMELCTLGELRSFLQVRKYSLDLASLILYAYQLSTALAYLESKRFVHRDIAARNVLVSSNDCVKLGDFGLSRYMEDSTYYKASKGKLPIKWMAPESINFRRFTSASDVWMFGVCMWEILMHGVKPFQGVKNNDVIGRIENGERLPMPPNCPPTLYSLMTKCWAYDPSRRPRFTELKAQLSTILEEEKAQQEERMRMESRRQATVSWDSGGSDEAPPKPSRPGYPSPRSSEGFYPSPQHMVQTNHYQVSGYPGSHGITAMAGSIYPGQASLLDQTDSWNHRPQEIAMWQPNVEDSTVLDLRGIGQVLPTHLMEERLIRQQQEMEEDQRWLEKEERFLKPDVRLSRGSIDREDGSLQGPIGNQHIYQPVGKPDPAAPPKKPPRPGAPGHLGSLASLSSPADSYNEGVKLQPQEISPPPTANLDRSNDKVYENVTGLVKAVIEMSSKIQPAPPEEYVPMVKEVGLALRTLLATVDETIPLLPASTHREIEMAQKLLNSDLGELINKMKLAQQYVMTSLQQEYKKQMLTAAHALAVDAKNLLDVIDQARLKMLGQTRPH
# Target: FAK/PTK2 (Homo sapiens, UniProt Q05397)
# Conditions: read-out: IC50 FAK/PTK2; kinase profiling
structure (smiles),measurement,value
"COc1cc(N2CCOCC2)ccc1Nc1nc(NC2CCCCC2)c2cc[nH]c2n1 [Compound 13, N4-cyclohexyl-N2-(2-methoxy-4-morpholinophenyl)-7H-pyrrolo[2,3-d]pyrimidine-2,4-diamine]",IC50,0.89 µM
